RXFP1 agonist: agonists of human relaxin receptor RXFP1. Q9HBX9. HEK293T-RXFP1 cAMP TR-FRET, 30 min; response scale: percent of porcine relaxin response, buffer zero. Potency, µM (top dose mostly 57.5 µM), without a hit: at the highest dose activation, actives largely listed as activators. hit rate 0.3% among 370,000. AID 2676; note: potency is the fitted concentration of half-maximal effect; % is set by controls: 0 for no effect and ±100 for the full control effect; nearly all actives have a fitted effect of over 60% in size
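HEK293 cells stably expressing RXFP1, treated 30 min at 37C with compounds plus PDE4 inhibitor Ro 20174; cAMP measured by HTRF TR-FRET. Normalized to buffer and 29 nM porcine relaxin; EC50 by Hill fit.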
KinaseGlo FLuc: counter-screen: inhibitors of Kinase-Glo firefly luciferase. Kinase-Glo luciferase, ATP luminescence, 8 min. Potency, µM (series often up to 38.3 µM), for inactives: at the highest dose activity change, negative = inhibition, hits mostly inhibitors. hit rate 0.28% among 200,000. AID 1379; note: potency is the fitted concentration of half-maximal effect; % is set by controls: 0 for no effect and ±100 for the full control effect; nearly all actives have a fitted effect of over 60% in size
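Recombinant Kinase-Glo luciferase, 10 uM ATP (linear range), luciferin; imidazole pH 7.2 / KCl / MgCl2 / Tween / BSA buffer; 8 min RT; luminescence.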
gsp antag: antagonists of gsp mutant (McCune-Albright syndrome) | gsp-mutant cells, cAMP HTRF, 30 min | Potency, µM (titrated, usually from 76.9 µM), for inactives: at the highest dose activity change, negative = inhibition, actives largely listed as inhibitors | hit rate 0.4% among 340,000 | AID 624288; calls by dose curve; cell line not stated here;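 note: intracellular cAMP measured with PDE inhibitor Ro 20-1724 present during compound exposure; potency is the fitted concentration of half-maximal effect; % is set by controls: 0 for no effect and ±100 for the full control effect; nearly all actives have a fitted effect of over 65% in size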
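Cells, 2000/well, grown 16–24 h in DMEM 10% FBS with 0.5 mg/ml G418, then compounds plus […] (300 uM addition stock), 30 min at 37C. cAMP read by HTRF (cAMP-d2 and anti-cAMP antibody-K in lysis buffer) after 30 min RT.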
RXFP1 antagonist: RXFP1 (human) relaxin receptor antagonism | HEK293-RXFP1, relaxin-stimulated cAMP HTRF, 30 min; active compounds read low | activity change, negative = inhibition, % at 57.5 µM | hit rate 0.59% among 350,000 | AID 1259400;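 active = activity change of -60% or lower, but not beyond a set lower limit; inconclusive = change between -60% and -40%, or beyond the set limit; inactive = change above -40%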; note: % is set by controls: 0 for no effect and ±100 for the full control effect
gsp agonist: activates gsp, the McCune-Albright syndrome mutation; gsp mutant cells, cAMP HTRF, 30 min; Potency, µM (highest dose often 76.9 µM), for the others: at the highest dose activation (cAMP increase), usual class: activators; hit rate 0.13% among 340,000; AID 624287; active = well fitted activation curve with a large enough effect; inconclusive = small, poorly fitted or top-dose-only effect, or another doubt; inactive = no such curve, though single readings can be large or run the other way; cell line not stated here;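 note: phosphodiesterase inhibitor Ro 20-1724 added with compounds to block cAMP breakdown; potency is the fitted concentration of half-maximal effect; nearly all actives have a fitted effect of over 60% in size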
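Cells in DMEM/10% FBS with G418 were pretreated with compounds in DMSO plus […] (300 uM stock) for 30 min at 37C. cAMP was measured by HTRF (cAMP-d2 plus anti-cAMP antibody-K) after 30 min at room temperature.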
miR-21 reporter: raises the signal of a miR-21 reporter; 340,000 tested, under 10 active; HeLa miR-21 FLuc reporter, luciferase, 48 h; Potency, µM (highest dose often 38.3 µM), without a hit: top-dose reporter change, positive = more light; active = well fitted rising curve with a large enough effect; inconclusive = small, poorly fitted or top-dose-only effect; inactive = no such curve, though single readings can be large or run the other way;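 also: % of control where 0% means no effect; miR-21 action dims this reporter so a rising signal means less miR-21 action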
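HeLa cells endogenously expressing miR-21, stably carrying CMV-driven firefly luciferase with a downstream miR-21 binding site, 2000 cells/well. Titrations up to approximately 40 uM, 48 hours; luciferase luminescence read.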
* = called active by the depositor; u = inconclusive; x = not tested or not shown; ! = not active in a repeat; [ ] = another dose, or the depositor's remark. In the library only some 1% were active in any assay of this set; here they are far more common. Unless noted, calls come from the whole dose curve; as a rule, active = well fitted curve in the direction sought with a large enough effect; inconclusive = small, poorly fitted or top-dose-only effect, or another doubt; inactive = no such curve, though single readings can be large; an effect the other way counts as inactive or inconclusive.

A first look, 4 compounds:
1	CCOC(=O)CS(=O)(=O)c1nc(-c2ccccc2)cc(C(F)(F)F)n1
2	Cc1ccc2oc(-c3ccc(NC(=O)CCC(=O)O)cc3)nc2c1
3	COc1ccc(C(=O)c2cn(CC(=O)Nc3ccc4c(c3)OCO4)c3ccc(OC)cc3c2=O)cc1
4	CCCCC(C)(C)[C@H](O)/C=C/[C@H]1[C@H](O)CC(=O)[C@@H]1C/C=C\CCCC(=O)O
screen / no. | 1 | 2 | 3 | 4
RXFP1 agonist | 0% | 15% | -1% | x
KinaseGlo FLuc | -2% | x | x | 0%
RXFP1 antagonist | -78* | x | -24 | x
gsp antag | 6%[15.4 µM] | x | x | x
miR-21 reporter | u | -56% | -28% | x
gsp agonist | 12% | x | x | x

The list itself, repeating the preview:
1	CCOC(=O)CS(=O)(=O)c1nc(-c2ccccc2)cc(C(F)(F)F)n1
2	Cc1ccc2oc(-c3ccc(NC(=O)CCC(=O)O)cc3)nc2c1
3	COc1ccc(C(=O)c2cn(CC(=O)Nc3ccc4c(c3)OCO4)c3ccc(OC)cc3c2=O)cc1
4	CCCCC(C)(C)[C@H](O)/C=C/[C@H]1[C@H](O)CC(=O)[C@@H]1C/C=C\CCCC(=O)O
5	COc1cccc(-n2c(-c3ccccc3)c[nH]c2=S)c1
6	S=c1[nH]cc(-c2ccccc2)n1-c1cccc(Cl)c1
screen / no. | 1 | 2 | 3 | 4 | 5 | 6
RXFP1 agonist | 0% | 15% | -1% | x | -1% | 4%
KinaseGlo FLuc | -2% | x | x | 0% | x | -3%
RXFP1 antagonist | -78* | x | -24 | x | -79* | -20
gsp antag | 6%[15.4 µM] | x | x | x | -17% | -5%
miR-21 reporter | u | -56% | -28% | x | 11% | 29%
gsp agonist | 12% | x | x | x | u | -21%

7	CN(C)CCNc1ccc2nnn3c4ccc(O)cc4c(=O)c1c23
8	CCN(CC)CCCNc1ccc2ncn3c4ccc(O)cc4c(=O)c1c23
9	CC(C)(CO)NS(=O)(=O)c1ccc2c(c1)C(=NO)c1cc(S(=O)(=O)NC(C)(C)CO)ccc1-2
10	COc1cc(OC)cc(-c2sc3ccccc3c(=O)c2I)c1
11	CC(C)CCn1c(-c2nonc2N)nc2ccccc21
12	O=C(O)CCSc1ccc2ccccc2n1
screen / no. | 7 | 8 | 9 | 10 | 11 | 12
RXFP1 agonist | x | x | -1% | x | 1% | 18µM*
KinaseGlo FLuc | x | x | 2% | 5%[39.9 µM] | 0% | -9%
RXFP1 antagonist | 6 | -21 | -2 | x | -4 | 23
gsp antag | -3% | u | 5% | x | 28µM* | 25%
miR-21 reporter | x | x | 2% | x | 27% | 11%
gsp agonist | u | 11µM* | 7.1µM* | x | -22% | u

13	CC1(C)O[C@@H]2C[C@H]3[C@@H]4CCC5=CC(=O)C=C[C@]5(C)[C@@H]4[C@@H](O)C[C@]3(C)[C@]2(C(=O)CO)O1
14	O=C(C=Cc1cccs1)c1cccs1
15	O=C(/C=C/c1ccc(O)cc1)c1ccccc1O
16	O=C(/C=C/c1ccc(O)cc1)c1cccs1
17	O=S(=O)(Nc1ccc(-c2ccc(N3CCCCC3)nn2)cc1)c1ccc(OC(F)(F)F)cc1
18	CC1(C)Cc2c(sc3ncnc(NN)c23)CO1
screen / no. | 13 | 14 | 15 | 16 | 17 | 18
RXFP1 agonist | x | x | x | x | -2% | 13µM*
KinaseGlo FLuc | x | x | 4.5µM* | 5.6µM* | x | x
RXFP1 antagonist | -4 | -6 | x | x | -20 | 9
gsp antag | x | -3% | x | x | x | 5%
miR-21 reporter | x | x | x | x | 24% | 6%
gsp agonist | x | 14% | x | x | x | u

19	CN(C)/C=C/c1oc2ccc(O)cc2c1[N+](=O)[O-]
20	Cc1oc2ccc(O)cc2c1C(=O)c1ccc([N+](=O)[O-])cc1
21	CCOc1ccc(-n2ccnc(SCC(=O)NCc3cccc(OC)c3)c2=O)cc1
22	Fc1ccccc1-c1ccc(/C=N/Nc2nc3ccccc3[nH]2)o1
23	Cn1c(N/N=C/c2cc3ccccc3nc2Cl)nc2ccccc21
24	Cn1c(N/N=C/c2c[nH]c3ccccc23)nc2ccccc21
screen / no. | 19 | 20 | 21 | 22 | 23 | 24
RXFP1 agonist | 1% | 3% | 4% | 0% | 1% | 0%
KinaseGlo FLuc | -5% | 3% | x | u | 6.3µM* | -7%
RXFP1 antagonist | -5 | -3 | -17 | u | 18 | 5
gsp antag | 28µM* | -16% | 3% | 40µM* | -20% | u
miR-21 reporter | -36% | -4% | x | -19% | 11% | 20%
gsp agonist | 21%[15.4 µM] | 11%[15.4 µM] | 10µM* | -27% | 0% | -23%

25	Cc1ccc2cc(/C=N/Nc3nc4ccccc4[nH]3)c(Cl)nc2c1
26	C(=N\Nc1nc2ccccc2[nH]1)/c1ccccn1
27	COc1ccc(C)cc1NC(=O)c1nnn(CC(=O)Nc2c(C)cccc2C)c1N
28	CCOc1ccccc1CNC(=O)c1cc2c(=O)n(Cc3ccccc3)ccc2nc1C
29	CCC(C(=O)O)c1ccc(N2Cc3ccccc3C2=O)cc1 (stereo not drawn)
30	CCN(CC)CCNC(=O)c1c(C)n(-c2ccccc2)c2cc(Br)c(OC)cc12
screen / no. | 25 | 26 | 27 | 28 | 29 | 30
RXFP1 agonist | 0% | -1% | 1% | -1% | x | -2%
KinaseGlo FLuc | 6.3µM* | 13µM* | x | x | x | 0%
RXFP1 antagonist | 1 | 10 | 4 | x | -13 | -78*
gsp antag | 5% | 2% | x | x | x | 15%
miR-21 reporter | 18% | u | -35% | 27% | x | -16%
gsp agonist | -42% | -11% | x | x | x | 25%

31	COc1cccc(N(C)C(=S)Oc2ccc3c(c2)CCCC3)n1
32	Cc1cccc(NC(=O)c2oc3ccc(S(=O)(=O)N(C)C4CCCCC4)cc3c2C)c1C
33	Cc1ccc(C(=O)Nc2nc(=O)n(C(=O)c3ccccc3C)s2)cc1
34	Cc1ccc(C(=O)Nc2nc(=O)n(C(=O)C3CC3)s2)cc1
35	CCOC(=O)/C=C/C(=O)Nc1ccc(Oc2ccccc2)cc1
36	O=C(CC1C(=O)N(c2ccc(F)cc2)C(=O)N1Cc1cccnc1)Nc1ccc(F)cc1 (stereo not drawn)
screen / no. | 31 | 32 | 33 | 34 | 35 | 36
RXFP1 agonist | x | 0% | 0% | 0% | 3% | -1%
KinaseGlo FLuc | x | x | 5% | 4% | -1% | x
RXFP1 antagonist | -65* | -2 | -10 | -5 | -64* | 12
gsp antag | x | x | 40µM* | u | -1% | x
miR-21 reporter | x | 15% | -9% | -6% | 7% | 4%
gsp agonist | x | x | 1% | -19% | -15%[15.4 µM] | x

37	CC(=O)c1cccc(NC(=O)COc2cc3oc(=O)c(CC(C)O)c(C)c3cc2Cl)c1 (stereo not drawn)
38	C=CCNC(=O)NC(=O)COC(=O)c1nc2nccc(C)n2n1
39	CCc1nn(CC(=O)N2CCN(c3cccc(C)c3)C(C)C2)c(=O)c2cc3sccc3n12 (stereo not drawn)
40	CN(Cc1ccco1)S(=O)(=O)c1nnc(NC(=O)c2ccccc2Cl)s1
41	COc1ccc(NC(=O)Nc2nnc(SCC(=O)Nc3cccc(C)c3C)s2)cc1
42	CC(C)(C)C(=O)COC(=O)c1cc(-c2ccncc2)nc2ccccc12
screen / no. | 37 | 38 | 39 | 40 | 41 | 42
RXFP1 agonist | 0% | 16µM* | 11% | 11µM*! | 3% | 4%
KinaseGlo FLuc | 2% | 5% | x | x | x | 0%
RXFP1 antagonist | -10 | 4 | -25 | -10 | -11 | -67*
gsp antag | 32µM* | 5% | x | u | x | -14%
miR-21 reporter | 8% | -3% | -5% | -5% | -9% | -3%
gsp agonist | 6%[15.4 µM] | u | x | u | x | -7%[15.4 µM]

43	Cc1ccc(CNc2oc(-c3ccc(COc4ccc(C)cc4)o3)nc2C#N)cc1
44	Cn1cc(C(=O)c2ccc(Cl)cc2)cc1-c1nc2ccccc2n1C
45	OC1(c2ccccc2)CCNCC1
46	O=C(Nc1ccccc1C(F)(F)F)N1CCOc2ccc(Cl)cc21
47	Cc1c(C(=O)NC2CCCCC2C)oc2ccccc12 (stereo not drawn)
48	O=C(N/N=C/c1cc2c3c(c1O)CCCN3CCC2)c1ccccc1O
49	CC(Oc1ccc(Cl)cc1Cl)C(=O)Nc1ccc2oc(-c3ccncc3)nc2c1 (stereo not drawn)
50	O=C(Cn1cnc2c(nnn2-c2ccc(F)cc2)c1=O)NCC1CCCO1 (stereo not drawn)
screen / no. | 43 | 44 | 45 | 46 | 47 | 48 | 49 | 50
RXFP1 agonist | 3% | 2% | x | 0% | 0% | 2% | 4% | u
KinaseGlo FLuc | x | 2% | x | x | x | -1% | -1% | 0%
RXFP1 antagonist | -25 | -9 | -12 | -5 | -6 | -76* | 1 | 23
gsp antag | x | 35µM* | x | x | 7.1µM* | u | 32µM* | 8%
miR-21 reporter | -16% | 26% | x | 4% | 27% | 21% | -6% | -5%
gsp agonist | x | u | x | x | u | -6%[15.4 µM] | 2% | 10µM*
